# Measured values published in US20100278751A1, “RADIOLABELED 2-AMINO-4-ALKYL-6-(HALOALKYL)PYRIDINE COMPOUNDS AND THEIR USE IN DIAGNOSTIC IMAGING” (WASHINGTON UNIVERSITY, priority 2009, published 2010).
# Chains of the proteins cited; added tags and fusions are not shown.
# UniProt P35228, whole entry: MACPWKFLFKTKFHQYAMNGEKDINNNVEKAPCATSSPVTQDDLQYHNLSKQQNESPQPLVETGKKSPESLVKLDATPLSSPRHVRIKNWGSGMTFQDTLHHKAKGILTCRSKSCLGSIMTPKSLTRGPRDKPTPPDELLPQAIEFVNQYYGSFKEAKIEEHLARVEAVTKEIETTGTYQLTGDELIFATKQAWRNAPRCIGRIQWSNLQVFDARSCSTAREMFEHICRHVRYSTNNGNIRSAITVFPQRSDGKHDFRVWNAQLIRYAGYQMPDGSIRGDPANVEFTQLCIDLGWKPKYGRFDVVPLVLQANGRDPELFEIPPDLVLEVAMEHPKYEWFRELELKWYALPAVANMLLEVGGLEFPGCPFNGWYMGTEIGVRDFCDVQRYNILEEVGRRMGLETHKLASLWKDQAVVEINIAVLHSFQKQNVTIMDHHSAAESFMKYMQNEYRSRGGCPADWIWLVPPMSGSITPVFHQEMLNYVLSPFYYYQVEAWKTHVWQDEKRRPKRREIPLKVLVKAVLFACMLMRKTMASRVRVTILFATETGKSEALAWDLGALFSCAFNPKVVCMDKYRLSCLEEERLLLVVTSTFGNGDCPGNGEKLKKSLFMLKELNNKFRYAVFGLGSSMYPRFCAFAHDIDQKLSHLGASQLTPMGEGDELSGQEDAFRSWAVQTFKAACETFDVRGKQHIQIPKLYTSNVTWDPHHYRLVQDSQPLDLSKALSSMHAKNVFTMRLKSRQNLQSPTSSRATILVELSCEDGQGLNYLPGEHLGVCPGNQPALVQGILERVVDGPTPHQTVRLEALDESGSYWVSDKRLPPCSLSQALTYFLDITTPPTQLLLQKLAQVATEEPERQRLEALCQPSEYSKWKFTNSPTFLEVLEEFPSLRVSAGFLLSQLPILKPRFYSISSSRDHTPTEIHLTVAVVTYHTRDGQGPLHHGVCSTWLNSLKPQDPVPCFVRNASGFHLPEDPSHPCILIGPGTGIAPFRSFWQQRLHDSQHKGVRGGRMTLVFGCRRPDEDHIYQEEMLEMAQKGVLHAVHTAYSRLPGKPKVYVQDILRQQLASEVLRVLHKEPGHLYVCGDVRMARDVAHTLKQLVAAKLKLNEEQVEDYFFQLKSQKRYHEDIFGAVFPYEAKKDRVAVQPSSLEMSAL
# Target: iNOS (Homo sapiens, UniProt P35228)
# Assay: iNOS activity, nitric oxide synthase screening kit (IC50)
# Type: biochemical
# Conditions: read-out: IC50 of tested compounds
row,IC50 [nM],Structure (SMILES)
1,1170,COc1ccnc(NC2CCN(C(=O)c3ccc(F)cc3)CC2)c1
2,800,COc1ccnc(NC2CCN(C(=O)c3ccc(Br)cc3)CC2)c1
3,> 5000,COc1ccnc(NC2CCN(C(=O)c3cccc(Br)c3)CC2)c1
4,789,COc1ccnc(NC2CCN(C(=O)c3ccc(Cl)cc3)CC2)c1
